Laboratory results reported in PubChem BioAssay AID588664 (The Scripps Research Institute Molecular Screening Center, 2011).
The entries are a selection whose mix differs from that of the whole data set. Some tests of the compounds listed are not included; inactive here does not mean inactive elsewhere. Activity calls are given as the source filed them. Rule as the data show it: active = inhibition above about 5% (passing the limit was not always enough); inactive = the rest.

Amino acid sequences for entries named in this document (tags omitted).
UniProt P00519, whole entry, looked up: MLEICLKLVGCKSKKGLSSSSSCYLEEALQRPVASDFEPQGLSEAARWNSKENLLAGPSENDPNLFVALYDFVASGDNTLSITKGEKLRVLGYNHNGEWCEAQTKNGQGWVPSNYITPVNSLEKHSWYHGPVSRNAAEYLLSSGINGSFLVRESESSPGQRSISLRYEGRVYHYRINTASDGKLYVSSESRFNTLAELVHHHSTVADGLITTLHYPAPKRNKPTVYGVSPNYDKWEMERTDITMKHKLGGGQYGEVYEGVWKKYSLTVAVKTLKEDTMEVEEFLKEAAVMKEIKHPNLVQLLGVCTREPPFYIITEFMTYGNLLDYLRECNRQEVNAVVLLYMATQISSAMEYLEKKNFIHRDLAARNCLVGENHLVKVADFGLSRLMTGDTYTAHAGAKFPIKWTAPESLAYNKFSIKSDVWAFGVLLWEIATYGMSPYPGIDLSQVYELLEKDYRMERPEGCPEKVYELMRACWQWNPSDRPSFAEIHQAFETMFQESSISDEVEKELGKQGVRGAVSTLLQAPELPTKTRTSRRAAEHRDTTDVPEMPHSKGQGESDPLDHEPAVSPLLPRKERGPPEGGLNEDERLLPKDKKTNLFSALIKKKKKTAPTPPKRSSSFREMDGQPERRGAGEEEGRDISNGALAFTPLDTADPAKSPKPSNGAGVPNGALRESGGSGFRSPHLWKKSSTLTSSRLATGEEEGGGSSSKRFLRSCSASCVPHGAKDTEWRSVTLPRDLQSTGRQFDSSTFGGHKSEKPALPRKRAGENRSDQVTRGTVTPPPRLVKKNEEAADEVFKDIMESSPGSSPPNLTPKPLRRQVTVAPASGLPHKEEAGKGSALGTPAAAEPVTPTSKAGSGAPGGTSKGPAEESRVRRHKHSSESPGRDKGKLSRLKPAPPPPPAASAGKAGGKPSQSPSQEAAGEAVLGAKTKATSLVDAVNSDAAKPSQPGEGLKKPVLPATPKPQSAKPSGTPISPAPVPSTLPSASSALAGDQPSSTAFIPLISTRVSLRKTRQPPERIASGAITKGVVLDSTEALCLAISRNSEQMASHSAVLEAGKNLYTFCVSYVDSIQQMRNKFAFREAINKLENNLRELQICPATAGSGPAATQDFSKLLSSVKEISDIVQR
UniProt Q13671, whole entry, looked up: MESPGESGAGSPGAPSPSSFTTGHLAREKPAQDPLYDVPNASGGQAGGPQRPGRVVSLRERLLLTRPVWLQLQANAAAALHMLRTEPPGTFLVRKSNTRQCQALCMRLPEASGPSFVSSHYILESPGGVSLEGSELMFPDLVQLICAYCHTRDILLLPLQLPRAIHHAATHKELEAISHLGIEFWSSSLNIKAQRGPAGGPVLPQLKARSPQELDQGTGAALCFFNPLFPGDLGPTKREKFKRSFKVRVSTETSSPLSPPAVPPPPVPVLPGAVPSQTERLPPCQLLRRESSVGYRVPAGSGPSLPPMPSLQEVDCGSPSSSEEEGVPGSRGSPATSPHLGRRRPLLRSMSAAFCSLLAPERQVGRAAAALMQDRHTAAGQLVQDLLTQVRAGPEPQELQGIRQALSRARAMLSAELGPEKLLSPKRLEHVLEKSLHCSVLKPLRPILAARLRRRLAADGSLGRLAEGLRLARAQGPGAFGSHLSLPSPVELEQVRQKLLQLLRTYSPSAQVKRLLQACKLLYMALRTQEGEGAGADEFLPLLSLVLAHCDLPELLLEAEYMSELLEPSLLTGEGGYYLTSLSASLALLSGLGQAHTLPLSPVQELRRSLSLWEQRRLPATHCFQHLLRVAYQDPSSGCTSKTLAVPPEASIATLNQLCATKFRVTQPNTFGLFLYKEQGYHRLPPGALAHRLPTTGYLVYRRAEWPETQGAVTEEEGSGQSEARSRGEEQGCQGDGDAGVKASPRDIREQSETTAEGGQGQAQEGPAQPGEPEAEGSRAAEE

These compounds were tested against Tyrosine-protein kinase ABL1 (Homo sapiens) + Ras and Rab interactor 1 (Homo sapiens) (UniProt P00519+Q13671) (assay: disruptors of human Abl and Rin1 association – biochemical, TR-FRET, primary screen (AID 588664)). Conditions: TR-FRET Rin1/Abl binding, at 7.35 µM, active compounds read high.

| Structure (SMILES) | inhibition |
| --- | --- |
| COc1ccc(Br)c(C(=O)NCC2(N3CCCCC3)CCCCC2)c1 | inactive: -6.08% |
| C=C(C)C#CC(O)(C(=O)OC1CCN(C)CC1)c1ccccc1 (stereo unspecified) | inactive: -1.16% |
| CN(C)c1cccc(C(=O)NCC2(N(C)C)CCCCC2)c1 | inactive: -0.69% |
| O=C(OCCN1CCCC1)C(O)(c1ccccc1)c1ccccc1 | inactive: 2.81% |
| CC(C)Oc1ccc(C(=O)NCC2(N(C)C)CCCCC2)cc1 | inactive: 4.82% |
| O=C(OC1CN2CCC1CC2)C(CO)(c1ccccc1)c1ccccc1 (stereo unspecified) | inactive: 0.86% |
| COc1ccc(Cl)cc1C(=O)NCC1(N(C)C)CCCCC1 | inactive: 3.07% |
| COc1cccc(C(=O)NCC2(N3CCCCC3)CCCCC2)c1 | inactive: -1.98% |
| O=C(NCC1(N2CCCCC2)CCCCC1)c1cccc(Cl)c1 | inactive: 0.13% |
| CN(C)C1(CNC(=O)c2ccc(Br)cc2)CCCCC1 | inactive: 0.11% |
| COc1cc(C(=O)NCC2(N(C)C)CCCCC2)c([N+](=O)[O-])cc1OC | inactive: 2.21% |
| O=C(NCC1(N2CCCCC2)CCCCC1)c1cc(F)c(F)cc1Cl | inactive: 0.9% |
| C=CCN1CCN(CCOC(=O)C(O)(c2ccccc2)c2ccccc2)CC1 | inactive: 1.26% |
| O=C(NCC1(N2CCCCC2)CCCCC1)c1cccc(Br)c1 | inactive: 2.35% |
| Cc1cc(C(=O)NCC2(N3CCCCC3)CCCCC2)ccc1[N+](=O)[O-] | inactive: -3.29% |
| CCN1CCCC(OC(=O)C2(O)c3ccccc3C=Cc3ccccc32)C1 (stereo unspecified) | inactive: -1.64% |
| COc1ccc(C(=O)NCC2(N(C)C)CCCCC2)cc1 | inactive: 3.07% |
| CN(C)C1CCCC1OC(=O)C(O)(c1ccccc1)c1ccccc1 (stereo unspecified) | inactive: -2.53% |
| CN(C)c1ccc(C(=O)NCC2(N(C)C)CCCCC2)cc1 | inactive: 0.44% |
| Cc1ccccc1C(=O)NCC1(N2CCCCC2)CCCCC1 | inactive: 2.11% |
| CC(C)N1C(=O)CC2(CCN(CCOC(=O)C(O)(c3ccccc3)c3ccccc3)CC2)C1=O | inactive: 0.7% |
| COc1cc(SC)ccc1C(=O)NCC1(N(C)C)CCCCC1 | inactive: -2.11% |
| CCN(CC)CC(C)C(C)OC(=O)C(O)(c1ccccc1)c1ccccc1 (stereo unspecified) | inactive: -3.33% |
| Cc1ccc(C(=O)NCC2(N3CCCCC3)CCCCC2)cc1 | inactive: 0.22% |
| O=C(NCC1(N2CCCCC2)CCCCC1)c1cc([N+](=O)[O-])ccc1Cl | inactive: -0.8% |
| CN1[C@@H]2CC[C@H]1CC(OC(=O)C(O)(c1ccccc1)c1ccccc1)C2 (stereo partly specified) | inactive: -1.3% |
